target: recombinant human Myt1 (Homo sapiens, UniProt Q99640); assay: Myt1 enzymatic assay (ADP-Glo kinase assay, IC50 and % max inhibition); type: biochemical; settings: read-out: Myt1 IC50, recombinant human Myt1 18 nM, ATP 10 μM

Amino acid sequences for entries named in this document (tags omitted).
UniProt Q99640, whole entry: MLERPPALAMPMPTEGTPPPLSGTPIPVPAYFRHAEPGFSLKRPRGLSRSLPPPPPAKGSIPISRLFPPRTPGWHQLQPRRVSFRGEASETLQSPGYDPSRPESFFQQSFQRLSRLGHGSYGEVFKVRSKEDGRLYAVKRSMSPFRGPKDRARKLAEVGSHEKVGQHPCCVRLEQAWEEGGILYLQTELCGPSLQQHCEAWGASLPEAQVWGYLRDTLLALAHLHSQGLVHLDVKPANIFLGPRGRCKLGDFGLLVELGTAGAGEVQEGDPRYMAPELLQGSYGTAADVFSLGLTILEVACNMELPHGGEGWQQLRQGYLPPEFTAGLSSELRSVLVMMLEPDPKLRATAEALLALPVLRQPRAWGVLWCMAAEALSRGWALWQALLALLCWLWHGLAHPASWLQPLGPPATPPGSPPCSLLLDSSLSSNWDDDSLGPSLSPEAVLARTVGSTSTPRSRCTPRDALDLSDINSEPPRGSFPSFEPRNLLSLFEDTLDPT

Structure (SMILES) | IC50
CNC(=O)C1CCN(c2cnc3c(n2)c(C(N)=O)c(N)n3-c2c(C)ccc(O)c2C)CC1 [47] | < 10 nM
CNC(=O)C1CCN(c2cnc3c(n2)c(C(N)=O)c(N)n3-c2c(C)ccc(O)c2C)CC1 [48] | > 5000 nM
[2H]C([2H])([2H])c1nc2c(C(N)=O)c(N)n(-c3c(C)ccc(O)c3C)c2nc1Br [272] | < 10 nM
[2H]C([2H])([2H])c1nc2c(C(N)=O)c(N)n(-c3c(C)ccc(O)c3C)c2nc1Br [273] | 585 nM
Cc1ccc(O)c(C)c1-n1c(N)c(C(N)=O)c2nc(N3CC4CCC(C3)O4)cnc21 [Compound 92] | < 10 nM
[2H]C([2H])([2H])c1nc2c(nc1C1CC1)c(C(N)=O)c(N)n2-c1c(C)ccc(O)c1C [Compound 112] | 1380 nM
Cc1ccc(O)c(C)c1-n1c(N)c(C(N)=O)c2nc(C(C)(C)F)cnc21 [Compound 178, 6-amino-2-(1-fluoro-1-methyl-ethyl)-5-(3-hydroxy-2,6-dimethyl-phenyl)pyrrolo[2,3-b]pyrazine-7-carboxamide] | 89 nM
